{"source": "patent US12433911B2", "about": "“Preparation and storage of liposomal RNA formulations suitable for therapy” (BIONTECH SE, priority 2019, dated 2025)", "key": {"[1]": {"test": "Buffer, pH, NaCl and sucrose stability studies at +25° C. and −15° C. (PCS, pH, capillary electrophoresis)", "description": "RNA lipoplexes are incubated under accelerated conditions (25° C.) in the presence of an exemplarily cryoprotectant. RNA integrity was analyzed by capillary electrophoresis over 60 days. Additionally, RNA lipoplexes are incubated under at the anticipated storage conditions (−15° C.) in the presence of an exemplarily cryoprotectant for up to two years. RNA integrity was analyzed by capillary electrophoresis.\nThe respective RNA lipoplexes were investigated under accelerated conditions (25° C.) and in the frozen state (−15° C.).\nRNA lipoplexes were formed with liposomes containing 2 mM of acetic acid. The respective RNA lipoplexes were investigated under accelerated conditions (25° C.) and in the frozen state (−15° C.).\nMethod: All RNA lipoplexes were automatically prepared in a single batch and the different concentrations of HEPES were adjusted by the addition of a cryoprotectant solution containing different amounts of HEPES. Particle sizes and polydispersity of RNA lipolexes were analyzed by photon correlation spectroscopy (PCS) measurements. Additionally, the RNA integrity was analyzed by capillary electrophoresis and the pH was measured.\nIn the following study, the concentration of HEPES which is required for stabilization of the pH of the RNA lipoplexes was investigated. […]"}, "[2]": {"test": "RNA integrity of RNA lipoplexes under stress conditions (40° C.), capillary electrophoresis", "conditions": "21 days, absence of cryoprotectant, by buffering system"}}}
{"substance": "acetic acid/sodium acetate", "values": [{"measurement": "stability of the RNA in RNA lipoplexes", "setting": "[1]; Example 2.1, accelerated conditions (25°)", "result": "lower stability"}, {"measurement": "preservation of the particle size and the polydispersity", "setting": "[1]; Example 2.1, frozen state (−15° C.)", "result": "equally suited"}, {"measurement": "stabilization of the RNA (RNA integrity)", "setting": "[2]", "result": "comparable results"}]}
